# Tested on: hiPSO-derived IECs
substance,measurement,value
ivermectin,IEC-selective dose-dependent cytotoxicity,identified
